These results are taken from PMC10566475, “A cell-active cyclic peptide targeting the Nrf2/Keap1 protein–protein interaction” (Chemical Science, 2023).

Sequences of proteins named here, by UniProt entry; tags and fusion partners are left off. Residues count along the entry.
UniProt Q14145, 321-609: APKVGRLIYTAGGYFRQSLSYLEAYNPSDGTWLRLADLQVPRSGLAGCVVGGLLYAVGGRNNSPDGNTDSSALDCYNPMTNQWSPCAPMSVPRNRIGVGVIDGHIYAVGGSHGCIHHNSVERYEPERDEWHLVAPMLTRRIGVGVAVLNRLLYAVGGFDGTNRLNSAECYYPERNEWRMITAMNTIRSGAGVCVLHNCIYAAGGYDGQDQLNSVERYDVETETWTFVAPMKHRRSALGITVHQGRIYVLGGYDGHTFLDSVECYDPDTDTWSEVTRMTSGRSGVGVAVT
UniProt Q14145, whole entry: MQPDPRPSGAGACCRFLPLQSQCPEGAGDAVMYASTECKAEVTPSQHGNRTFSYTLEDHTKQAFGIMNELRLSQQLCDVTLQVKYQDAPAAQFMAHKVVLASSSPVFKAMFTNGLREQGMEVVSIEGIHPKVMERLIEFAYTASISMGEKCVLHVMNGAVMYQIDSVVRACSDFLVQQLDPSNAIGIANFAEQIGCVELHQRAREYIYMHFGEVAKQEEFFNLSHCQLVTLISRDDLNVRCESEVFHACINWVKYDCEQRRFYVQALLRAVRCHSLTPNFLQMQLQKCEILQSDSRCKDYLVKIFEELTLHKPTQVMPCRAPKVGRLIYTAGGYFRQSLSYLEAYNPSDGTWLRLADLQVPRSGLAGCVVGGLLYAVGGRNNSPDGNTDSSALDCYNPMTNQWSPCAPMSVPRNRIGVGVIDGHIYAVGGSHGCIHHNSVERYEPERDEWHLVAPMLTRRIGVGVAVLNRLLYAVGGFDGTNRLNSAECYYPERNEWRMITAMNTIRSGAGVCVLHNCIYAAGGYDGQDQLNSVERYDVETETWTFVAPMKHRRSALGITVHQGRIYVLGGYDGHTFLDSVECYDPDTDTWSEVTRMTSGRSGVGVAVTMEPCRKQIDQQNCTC

As a reminder, the koff is the first-order rate constant of dissociation. A lower koff goes with a long-lived complex. One may read the kon as a measure of how fast the partners come together. High values mean faster complex formation, low ones slower complex formation. Broadly, the Kd is the free concentration of one partner at which half of the binding sites on the other are occupied at equilibrium, for simple one-to-one binding. A lower Kd goes with tighter binding.

Test [1] has as its target T1, human Keap1 Kelch domain (A321-T609) (Homo sapiens, UniProt Q14145).
T1 construct: human Keap1 Kelch domain (A321-T609) fused with N-terminal 6x His-tag; 6xHis (N); made in house
The experiment in a line: Surface plasmon resonance (SPR) direct binding assay, immobilised Keap1 Kelch domain. As to conditions: Table 2; for Kd: geometric mean ± sd of at least two independent repeats. An excerpt: (§1) We based the design of our Nrf2-like cyclic peptides around the amino acid sequence of the ETGE motif (namely 12-mer ^73QLQLDEETGEF^84L) and SAR studies reported in the literature.[9,10,12,14] The […] motif is known to adopt a beta-turn conformation upon binding to Keap1. Residues Q73-Q75 and L85 stabilise the bound conformation, L76-D77 and E79-G81 bind deep into the pocket with E79 and E82 forming electrostatic interactions with Keap1 and D77 and T80 stabilising the beta-turn via H-bonds with E78 not contributing to the binding. In particular, our peptides aim to retain the beta-turn conformation and featured the E78P mutation which has been reported to improve the binding affinity.[9] […] The ability of the cyclic peptides to bind to the Kelch domain of Keap1 was evaluated using surface plasma resonance (SPR), where the Kelch domain is immobilised onto a SPR sensor chip. Additionally, we assessed the ability of the peptides to inhibit the PPI between Nrf2 and the Kelch domain of Keap1 using a time-resolved FRET (TR-FRET) assay. Here, the IC50 for inhibition of the interaction between the human Keap1 Kelch domain and an Nrf2-ETGE peptide is measured.
(§2) Surface Plasmon Resonance (SPR)
(§3) Peptide affinities to the Kelch domain of Keap1 is determined in a direct binding assay using 8K surface plasmon resonance (SPR) biosensor (Cytiva) at 20°C. Immobilization of Keap1 Kelch domain on a CM5 sensor chip (Cytiva) is performed using standard amine coupling procedure. The surface is washed with 10mM NaOH, 1M NaCl before activated with EDC/NHS (Cytiva), followed by immobilization of human Keap1 Kelch domain (A321-T609) fused with N-terminal 6x His-tag7 (in 10 mM MES, pH=6.4).
(§4) Finally, the surface is deactivated by Ethanolamine. Immobilization levels are typically 5000-6000 RU.
(§5) The reference spot is treated as described, omitting the injection of Keap1. Compound concentration series are injected over the immobilized protein in increasing concentrations using single cycle kinetics (SCK) in running buffer (10 mM HEPES, 150 mM NaCl, 0.05% Tween20, 1 mM TCEP, pH 7.4). A 1:1 Langmuir interaction model is fitted to the experimental traces, enabling determination of kon, koff and […]
(§6) In the time-resolved Förster resonance energy transfer (TR-FRET) assay8 the IC50 of inhibitors which are able to inhibit the interaction between the Keap1-Kelch domain and a Nrf2 derived ETGE peptide are determined. The TR-FRET is measured between a Tb-labelled mAb (Anti—6-His, Tb cryptate Gold, CisBio 61H12TLB) that binds to Keap 1 Kelch domain and d2-labelled SA-biotin-peptide.
(§7) The assay was performed in 384-well white low-volume, medium binding plates (Greiner Bio One, Austria) in 20 mM HEPES pH 7.5, 150 mM NaCl, 2 mM GSH (Sigma-Aldrich, USA),1mM EDTA (Sigma-Aldrich, USA), and 0.01% Pluronic F127 (MilliporeSigma, USA), with a final reaction volume of 10 µL.
(§8) To determine the ability of synthesized peptide to inhibit PPI between the Keap1 Kelch domain and Nrf2, 1nM purified human Keap1 Kelch domain (A321-T609) fused with N-terminal 6x His-tag, 5 nM biotinylated Nrf2 peptide ([…], Genescript, USA), d2-labeled streptavidin (Revvity, USA), and […] anti-His monoclonal antibody tagged with terbium cryptate (Revvity, USA), were incubated in the presence of varying concentrations of investigated peptides for 3 h at room […]
(§9) 7 Li X, Zhang D, Hannink M, Beamer LJ. Crystallization and initial crystallographic analysis of the Kelch domain from human Keap1. Acta
(§10) 8 S. Lee, D. Ali Abed, L. J. Beamer, L. Hu, Development of a Homogeneous Time-Resolved Fluorescence Resonance Energy Transfer (TR-
FRET) Assay for the Inhibition of Keap1–Nrf2 Protein–Protein Interaction, SLAS Discovery, 26, 1, 2021, Pages 100-112, ISSN 2472-
(Surface plasmon resonance follows binding to a sensor surface in real time, without labels.)

For test [2], the target named is T2, interaction between the human Keap1 Kelch domain and an Nrf2-ETGE peptide (Homo sapiens, UniProt Q14145).
T2 construct: 1nM purified human Keap1 Kelch domain (A321-T609) fused with N-terminal 6x His-tag; made in house
The experiment in a line: Keap1-Nrf2 TR-FRET (HTRF) assay. In kind it is binding. As to conditions: Table 2; IC50, minimum of three repeats; read-out: TR-FRET.
Text: as §1, §2, §3, §4, §5, §6, §7, §8, §9, §10
FRET) Assay for the Inhibition of Keap1–Nrf2 Protein–Protein Interaction, SLAS Discovery, 26, 1, 2021, Pages 100-112, ISSN 2472- […]
Following the incubation, the PHERAstar FSX […] microplate reader was used to measure the acceptor and donor emissions at 665 nm and 620 nm, respectively. The acceptor/donor ratio was used to calculate relative energy transfer. […]
For orientation: Time-resolved FRET reads energy transfer from a long-lived donor to a nearby acceptor.

Test [3] deals with NQO1 gene expression in BEAS-2B cells (Homo sapiens). As to the kind of experiment: BEAS-2B NQO1 assay (qPCR of NQO1 mRNA). Type of test: cell-based. As to conditions: EC50 of NQO1 mRNA upregulation, 24 h, medium without FBS, read-out: BEAS2b. From the text: The effect of peptides on Nrf2-dependent gene expression was investigated in BEAS-2B cells, where we determined the upregulation of the mRNA of NAD(P)H quinone dehydrogenase (NQO1) by qPCR. The expression of NQO1 is Nrf2-dependent and it is one of the two major quinone reductases, which play a crucial role in protecting cells from oxidative stress.[40] ^§§ In the context of this study we chose BEAS-2B cells as a representative model for epithelial cells. The presence of serum has been reported to affect BEAS-2B cell phenotype. Specifically, exposure of BEAS-2B to FBS has been associated with squamous differentiation, alteration in cytokine secretion and response to toxicants.[42–44] […] The lack of activity of the peptides is unsurprising considering the overall negative net charge, which will obstruct their cellular uptake. In order to improve the cellular uptake, we took of advantage of the 2C-PS moiety, which not only allows the easy synthesis of a variety of macrocycles of different ring sizes, but also permits the facile introduction of a diverse set of moieties, which could enhance cell permeability. We pursued a diverse set of strategies to make the Keap1 peptide more cell permeable, namely: masking of the acidic amino acids with methyl esters, introduction of polyarginine peptides, GWWG-polyarginine peptides or a long-chain fatty acid tag onto the staple, as well as peptide shortening and a combination of these. The rationale behind these strategies is explained herein, and details of their synthesis can be found in the ESI. ^†
Cellular Biology Experimental
(Thermo Fisher Scientific, USA).
calculated using QunatStudio 7 software.
(In general: Real-time PCR tracks product formation cycle by cycle.)

SMILES strings stand for the structures. Values joined by “and” are separate entries in the source; they are usually repeats but may differ in a detail not shown here. Identical values can stand only once. Where only a bound is given, the exact number is not on record here.

In test [1], `CC(=O)N[C@H]1CSCCc2cc(nc(NCCOCCOCc3cn(CCCCC(=O)NCC(=O)N[C@@H](Cc4c[nH]c5ccccc45)C(=O)N[C@@H](Cc4c[nH]c5ccccc45)C(=O)NCC(=O)N[C@H](CCCNC(=N)N)C(=O)N[C@H](CCCNC(=N)N)C(=O)N[C@H](CCCNC(=N)N)C(N)=O)nn3)n2)CCSC[C@@H](C(=O)N[C@@H](CC(C)C)C(N)=O)NC(=O)[C@H](CCC(=O)O)NC(=O)CNC(=O)[C@H]([C@@H](C)O)NC(=O)[C@H](CCC(=O)O)NC(=O)[C@@H]2CCCN2C(=O)[C@H](CC(=O)O)NC1=O` [Peptide P8-G] gave a koff of 0.0046 s⁻¹, a kon of 1.2e+06 M⁻¹ s⁻¹ and a Kd of 4.6 ± 1.4 nM. The IC50 in test [2] was 1.9 ± 1.6 nM. The EC50 in test [3] is over 10000 nM.
On to `CCCCCCCCCCCCCCCCCC(=O)NCCCC[C@H](NC(=O)COCCOCCn1cc(COCCOCCNc2nc3cc(n2)CCSC[C@@H](C(=O)N[C@@H](CC(C)C)C(N)=O)NC(=O)[C@H](CCC(=O)O)NC(=O)CNC(=O)[C@H]([C@@H](C)O)NC(=O)[C@H](CCC(=O)O)NC(=O)[C@@H]2CCCN2C(=O)[C@H](CC(=O)O)NC(=O)[C@@H](NC(C)=O)CSCC3)nn1)C(=O)NCCOCCOCC(=O)NCCOCCOCC(N)=O` [Peptide P8-H], for which, in test [1], the koff is 0.005 s⁻¹, the association rate constant (kon) came to 160000 M⁻¹ s⁻¹ and the Kd worked out at 32 ± 1.9 nM. The IC50 in test [2] was 7 nM and 7.4 nM. Besides, in test [3], the EC50 was found to be 740 ± 1100 nM.
